Measured values reported in patent US12227593B2, “Site-specific conjugation of glycosylated monoclonal antibodies with transglutaminase” (Janssen Biotech, Inc., priority 2020, dated 2025).

Assays:
[1] = molecular target: T1, MTG (Streptomyces mobaraensis, UniProt P81453); test: MTG-catalyzed conjugation of 3-APA to mAbs, degree of labeling (DOL) by LC-MS; type: biochemical, S. mobarensis; conditions: per full mAb
T1 construct: purchased Activa TI or Zedira
T1 sequence (P81453 77-407): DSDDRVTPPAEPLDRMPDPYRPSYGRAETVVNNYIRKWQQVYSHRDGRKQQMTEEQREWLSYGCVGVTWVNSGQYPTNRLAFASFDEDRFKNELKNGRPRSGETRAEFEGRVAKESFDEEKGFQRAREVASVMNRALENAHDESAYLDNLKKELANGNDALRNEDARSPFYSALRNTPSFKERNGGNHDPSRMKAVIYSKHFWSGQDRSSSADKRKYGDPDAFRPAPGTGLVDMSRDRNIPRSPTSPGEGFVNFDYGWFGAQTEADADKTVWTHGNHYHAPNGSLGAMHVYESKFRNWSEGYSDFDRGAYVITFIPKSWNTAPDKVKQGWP
Description: To assess the suitability of the mAb variants for MTG-catalyzed conjugation, intact mAbs (1 mg/mL) were reacted with 3-azido propylamine (3-APA; 20-100-fold molar excess) and MTG (Activa TI, 5-20% w/v or Zedira, 5-20 units/mg of mAb) in PBS buffer at 22-37° C. for 30 min to overnight. Reactions were stopped by the addition of MTG blocker (Zedira) to 100 μM and analyzed by LC-MS following deglycosylation with PNGase F and reduction with dithiothreitol. The degree of labeling (DOL) was determined by mass spectrometry.
LC-MS was performed on an Agilent 1260 HPLC system connected to an Agilent G6224 MS-TOF Mass Spectrometer. LC was run on an Agilent RP-mAb C4 column (2.1×50 mm, 3.5 micron) at a flow rate of 1 mL/min with the mobile phase 0.1% formic acid in water (A) and 0.1% formic acid in acetonitrile (Sigma-Aldrich Cat #34688) (B) and a gradient of 20% B (0-2 min), 20-60% B (2-3 min), 60-80% B (3-5.5 min). The instrument was operated in positive electro-spray ionization mode and scanned from m/z 600 to 6000. Mass to charge spectrum was deconvoluted using the Maximum Entropy algorithm and DOL was estimated using relative intensities of the deconvoluted masses corresponding to intact mAb (for intact mass) or mAb heavy chain (for reduced mass) with the addition of multiples of 83 Da (corresponding to 3-APA).
Instrument settings included: capillary voltage 3500V; fragmentor 175V; skimmer 65V; gas temperature 325C; drying gas flow 5.0 L/min; nebulizer pressure 30 psig; acquisition mode range 100-7000 with 0.42 scan rate.

[2] = molecular target: T1, MTG; test: MTG-catalyzed conjugation with different amine substrates, DOL by LC-MS; type: biochemical, S. mobarensis; conditions: 18 hour reaction at 37° C., substrate 690 uM, Zedira MTG 10 U/mg
[3] = glycosylated mAbs, 4 hour incubation with MTG and 3-APA at 37° C., reduced MS
[4] = glycosylated mAbs, MTG and 3-APA at 37° C.

C′/D and E strands: trastuzumab variant, engrafting the corresponding sequence of rat IgG2a
DOL [1, 3]: 0.6-0.8

Entire CH2 domain: trastuzumab variant, engrafting the corresponding sequence of rat IgG2a
DOL [1, 3]: 1-1.4

WT degly: WT trastuzumab deglycosylated
DOL, substrate NH2-MMAF [2]: 0.9
DOL 60 min ([1]; MTG and 3-APA at 37° C.): 1.64
DOL 0 min [1, 4]: 0

trastuzumab [WT]
DOL, substrate 3-APA [2]: 1.2
DOL, substrate Azido-PEG3-amine [2]: 1.2
DOL, substrate NH2-MMAF [2]: 0.1
DOL, substrate NH2-vcMMAF [2]: 0.5
DOL, substrate pentyl amino biotin [2]: 1.1
DOL ([1]; MTG and 3-APA at 37° C. for 1 hour, standard conditions): 0.5
DOL 30 min ([1]; MTG and 3-APA at 37° C., 30 min): 0.1
DOL 60 min ([1]; MTG and 3-APA at 37° C.): 0.18
DOL 1 hr ([1]; MTG and 3-APA at 37° C., 1 hr): 0.5
DOL 90 min ([1]; MTG and 3-APA at 37° C., 90 min): 0.24
DOL 150 min ([1]; MTG and 3-APA at 37° C., 150 min): 0.36
DOL 4 hr ([1]; MTG and 3-APA at 37° C., 4 hr): 0.7
DOL 18 hr ([1]; different IgG backgrounds, MTG and 3-APA at 37° C., 18 hr): 1.2
DOL [1, 3]: 0.2
DOL 0 min [1, 4]: 0
